{"source": "patent US8084059B2", "about": "“Antidepressant dosage form” (ALZA Corporation, priority 1993, dated 2011)", "origin": "cited, not measured here", "system": "neuronal uptake of serotonin", "conditions": "in vitro"}
{"smiles": "COc1ccc(C(CN(C)C)C2(O)CCCCC2)cc1", "note": "(stereo not shown) [1-[2-(dimethylamino)-1-(4-methoxyphenyl)ethyl]cyclohexanol]", "values": [{"measurement": "neuronal uptake of serotonin", "value": "prevents"}]}
